{"source": "patent US9669054B2", "about": "“pH buffered bioactive glass, and its preparation process and use” (CHANGZHOU BIO-SHENG TECHNOLOGY CO., LTD., priority 2011, dated 2017)", "key": {"[1]": {"test_system": "acetic-acid induced chronic gastric ulcers", "assay": "Treatment of acetic-acid induced chronic gastric ulcers in rats", "format": "in vivo", "method": "In this study and experiment, we studied the dose-effect relationship of the tested drug (the bioactive glass) by adopting the rat model of acetic-acid induced chronic gastric ulcers, and using hydrotalcite and omeprazole as the positive controls, so as to evaluate the effect of the bioactive glass in the treatment of chronic gastric ulcers.\nAfter fasting for 24 hours, the rats were anesthetized and disinfected in a conventional way, and then was cut from the xiphoid down along the medioventral line to about 2 cm, so as to remove the stomach from the enterocoelia; 5 μl of 100% glacial acetic acid was injected by using a microsyringe into a position close to the muscular layer below the anterior wall serosa of the gastric antrum; when a translucent white spot with a diameter of about 3 mm appeared, the stomach was given back to the enterocoelia, and was enveloped in omentum majus; then, peritoneum, muscular layer and skin were sutured in this order.\nEach drug was divided into 5 groups according to the administration method described above, namely, a model group and four groups with different doses of drugs. Each group of the drugs was administered to 6 to 8 […]. At the third day after the surgery, the treatment started by intragastrically administering drugs to the rats once a day for 7 days, wherein normal saline was administered in the same volume to the rats in the model group instead. The doses of the drugs in each group are listed as follows: Weibeisheng: 0 mg/kg, 0.1 mg/kg, 0.3 mg/kg, 1 mg/kg, and 3 mg/kg; omeprazole: 0 mg/kg, 0.3 mg/kg, 1 mg/kg, 3 mg/kg, and 10 mg/kg; hydrotalcite: 0 mg/kg, 1 mg/kg, 3 mg/kg, 10 mg/kg, and 30 mg/kg. The following indices were measured:\n(1) ulcer index: the longest diameter in the length direction of an ulcer area and the longest diameter in the width direction perpendicular to the longest diameter in the length direction of the ulcer area were measured by a vernier caliper, and the product of the above two diameters is the ulcer index.\n(2) ulcer inhibition rate: it represents the inhibition effect of a drug on the ulcer index. […]"}, "[2]": {"test_system": "mouse stress-induced gastric ulcers", "assay": "Comparative experiment on inhibition of stress-induced gastric ulcers versus representative drugs", "format": "in vivo", "conditions": "mice", "method": "The mice were divided into four groups, to which deionized water (the solvent control group), and three kinds of Weibeisheng with pH 7, 8 and 9 at a dose of 1 g/kg were respectively intragastrically administrated. Two hours later, the mice were subjected to stress in water at 21±1° C. for 15 hours, and were administered again two hours before the end of the stress. Then the animals were killed and autopsy was performed. […]\nThis experiment was conducted in the same way as described in Experiment Example 2 . […] After the ulcer index of each group was scored, the inhibition effect of each drug on mouse stress-induced gastric ulcers (namely, the maximum inhibition rate Emax) was calculated.\nThe bioactive glass formulations (also named Weibeisheng) used in the above Experiment Examples 2 and 5 were prepared from Production Example 1 and a Tris buffer solution in a certain ratio. The ratios used in these two Experiment Examples were determined according to the weight of the mouse and the amount of intragastric administration."}}}
{"substance": "hydrotalcite", "values": [{"measurement": "therapeutic effect on chronic gastric ulcers", "setting": "[1]", "value": 38, "unit": "%"}, {"measurement": "Emax (maximum inhibition rate)", "setting": "[1]; intragastric once a day for 7 days", "value": "37.8 ± 5.6", "unit": "%"}, {"measurement": "ED50 (median effective dose)", "setting": "[1]; intragastric once a day for 7 days, ulcer inhibition rate", "value": 1.0, "unit": "mg/kg"}, {"measurement": "inhibition of occurrence of ulcers", "setting": "[2]; four doses per drug", "value": "can inhibit occurrence of ulcers and are dose-dependent"}, {"measurement": "Emax (% inhibition rate)", "setting": "[2]; intragastric, stress in water 15 hours", "value": 43.7, "unit": "% inhibition rate"}]}
